# In PubChem BioAssay (NCI):
#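 Method: 48-hour compound exposure of cells in 96-well plates, five concentrations, linear interpolation of endpoints. At the GI50, growth is halved. TGI marks complete inhibition of growth.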
# Columns and labels:
# Test in all cases: growth of human tumour cells (NCI), 48 h
# SNB-75 CNS = tested on: SNB-75 CNS
# OVCAR-8 ovarian = tested on: OVCAR-8 ovarian
# M14 melanoma = tested on: M14 melanoma
# HL-60(TB) leukemia = tested on: HL-60(TB) leukemia
# 786-0 renal = tested on: 786-0 renal
# A549 NSCLC = tested on: A549 NSCLC
# K-562 leukemia = tested on: K-562 leukemia
# SN12C renal = tested on: SN12C renal
# HCT-116 colon = tested on: HCT-116 colon
# MOLT-4 leukemia = tested on: MOLT-4 leukemia
# A498 renal = tested on: A498 renal
# NCI-H23 lung = tested on: NCI-H23 lung
# HS 578T breast = tested on: HS 578T breast
# SF-539 CNS = tested on: SF-539 CNS
# MALME-3M melanoma = tested on: MALME-3M melanoma
# SR leukemia = tested on: SR leukemia
# KM12 colon = tested on: KM12 colon
# LOX IMVI melanoma = tested on: LOX IMVI melanoma
# UACC-257 melanoma = tested on: UACC-257 melanoma
# SNB-19 CNS = tested on: SNB-19 CNS
# ACHN renal = tested on: ACHN renal
# NCI-H460 lung = tested on: NCI-H460 lung
# SW-620 colon = tested on: SW-620 colon
# CAKI-1 renal = tested on: CAKI-1 renal
# SF-295 CNS = tested on: SF-295 CNS
# T-47D breast = tested on: T-47D breast
# TK-10 renal = tested on: TK-10 renal
# SK-MEL-28 melanoma = tested on: SK-MEL-28 melanoma
# HT29 colon = tested on: HT29 colon
# OVCAR-4 ovarian = tested on: OVCAR-4 ovarian
# OVCAR-5 ovarian = tested on: OVCAR-5 ovarian
# EKVX NSCLC = tested on: EKVX NSCLC
# RPMI-8226 leukemia = tested on: RPMI-8226 leukemia
# SK-OV-3 ovarian = tested on: SK-OV-3 ovarian
# PC-3 prostate = tested on: PC-3 prostate
# BT-549 breast = tested on: BT-549 breast
# SF-268 CNS = tested on: SF-268 CNS
# MCF7 breast = tested on: MCF7 breast
# UACC-62 melanoma = tested on: UACC-62 melanoma
# SK-MEL-5 melanoma = tested on: SK-MEL-5 melanoma
# OVCAR-3 ovarian = tested on: OVCAR-3 ovarian
# RXF 393 renal = tested on: RXF 393 renal
# NCI/ADR-RES ovarian = tested on: NCI/ADR-RES ovarian
# NCI-H226 lung = tested on: NCI-H226 lung
# HCC-2998 colon = tested on: HCC-2998 colon
# HCT-15 colon = tested on: HCT-15 colon
# MDA-N = tested on: MDA-N
# UO-31 renal = tested on: UO-31 renal
# MDA-MB-231 breast = tested on: MDA-MB-231 breast
# HOP-62 NSCLC = tested on: HOP-62 NSCLC
# DU-145 prostate = tested on: DU-145 prostate
# IGROV1 ovarian = tested on: IGROV1 ovarian
# CCRF-CEM leukemia = tested on: CCRF-CEM leukemia
# SK-MEL-2 melanoma = tested on: SK-MEL-2 melanoma
# MDA-MB-435 = tested on: MDA-MB-435
# NCI-H522 lung = tested on: NCI-H522 lung
# U251 CNS = tested on: U251 CNS
# NCI-H322M lung = tested on: NCI-H322M lung
# HOP-92 NSCLC = tested on: HOP-92 NSCLC
smiles,measurement,setting,value
O=[N+]([O-])C(/C=C(/Cl)[N+](=O)[O-])=C(Cl)Cl,GI50,SNB-75 CNS,42.4 µM
same,TGI,SNB-75 CNS,> 100 µM
same,GI50,OVCAR-8 ovarian,44.1 µM
same,TGI,OVCAR-8 ovarian,> 100 µM
same,GI50,M14 melanoma,> 100 µM
same,TGI,M14 melanoma,> 100 µM
same,GI50,HL-60(TB) leukemia,20.8 µM
same,TGI,HL-60(TB) leukemia,43.5 µM
same,GI50,786-0 renal,17.9 µM
same,TGI,786-0 renal,32.2 µM
same,GI50,A549 NSCLC,> 100 µM
same,TGI,A549 NSCLC,> 100 µM
same,GI50,K-562 leukemia,30.1 µM
same,TGI,K-562 leukemia,83.8 µM
same,GI50,SN12C renal,47 µM
same,TGI,SN12C renal,> 100 µM
same,GI50,HCT-116 colon,52.5 µM
same,TGI,HCT-116 colon,> 100 µM
same,GI50,MOLT-4 leukemia,43.3 µM
same,TGI,MOLT-4 leukemia,> 100 µM
same,GI50,A498 renal,71 µM
same,TGI,A498 renal,> 100 µM
same,GI50,NCI-H23 lung,35.5 µM
same,TGI,NCI-H23 lung,> 100 µM
same,GI50,HS 578T breast,12.7 µM
same,TGI,HS 578T breast,93.1 µM
same,GI50,SF-539 CNS,74.6 µM
same,TGI,SF-539 CNS,> 100 µM
same,GI50,MALME-3M melanoma,17.8 µM
same,TGI,MALME-3M melanoma,39.2 µM
same,GI50,SR leukemia,34 µM
same,TGI,SR leukemia,> 100 µM
same,GI50,KM12 colon,> 100 µM
same,TGI,KM12 colon,> 100 µM
same,GI50,LOX IMVI melanoma,20.9 µM
same,TGI,LOX IMVI melanoma,36.3 µM
same,GI50,UACC-257 melanoma,34.8 µM
same,TGI,UACC-257 melanoma,> 100 µM
same,GI50,SNB-19 CNS,4.15 µM
same,TGI,SNB-19 CNS,68.6 µM
same,GI50,ACHN renal,36.1 µM
same,TGI,ACHN renal,> 100 µM
same,GI50,NCI-H460 lung,> 100 µM
same,TGI,NCI-H460 lung,> 100 µM
same,GI50,SW-620 colon,37 µM
same,TGI,SW-620 colon,> 100 µM
same,GI50,CAKI-1 renal,17.6 µM
same,TGI,CAKI-1 renal,33.1 µM
same,GI50,SF-295 CNS,> 100 µM
same,TGI,SF-295 CNS,> 100 µM
same,GI50,T-47D breast,41.8 µM
same,TGI,T-47D breast,> 100 µM
same,GI50,TK-10 renal,98.2 µM
same,TGI,TK-10 renal,> 100 µM
same,GI50,SK-MEL-28 melanoma,34.5 µM
same,TGI,SK-MEL-28 melanoma,> 100 µM
same,GI50,HT29 colon,31.4 µM
same,TGI,HT29 colon,> 100 µM
same,GI50,OVCAR-4 ovarian,37.8 µM
same,TGI,OVCAR-4 ovarian,> 100 µM
same,GI50,OVCAR-5 ovarian,79.4 µM
same,TGI,OVCAR-5 ovarian,> 100 µM
same,GI50,EKVX NSCLC,> 100 µM
same,TGI,EKVX NSCLC,> 100 µM
same,GI50,RPMI-8226 leukemia,34 µM
same,TGI,RPMI-8226 leukemia,> 100 µM
same,GI50,SK-OV-3 ovarian,> 100 µM
same,TGI,SK-OV-3 ovarian,> 100 µM
same,GI50,PC-3 prostate,47.3 µM
same,TGI,PC-3 prostate,> 100 µM
same,GI50,BT-549 breast,22.6 µM
same,TGI,BT-549 breast,65.6 µM
same,GI50,SF-268 CNS,31.2 µM
same,TGI,SF-268 CNS,> 100 µM
same,GI50,MCF7 breast,27.4 µM
same,TGI,MCF7 breast,69.5 µM
same,GI50,UACC-62 melanoma,36.1 µM
same,TGI,UACC-62 melanoma,> 100 µM
same,GI50,SK-MEL-5 melanoma,> 100 µM
same,TGI,SK-MEL-5 melanoma,> 100 µM
same,GI50,OVCAR-3 ovarian,21.9 µM
same,TGI,OVCAR-3 ovarian,49.8 µM
same,GI50,RXF 393 renal,27 µM
same,TGI,RXF 393 renal,84.6 µM
same,GI50,NCI/ADR-RES ovarian,27.1 µM
same,TGI,NCI/ADR-RES ovarian,94.1 µM
same,GI50,NCI-H226 lung,> 100 µM
same,TGI,NCI-H226 lung,> 100 µM
same,GI50,HCC-2998 colon,> 100 µM
same,TGI,HCC-2998 colon,> 100 µM
same,GI50,HCT-15 colon,36.5 µM
same,TGI,HCT-15 colon,> 100 µM
same,GI50,MDA-N,45.5 µM
same,TGI,MDA-N,> 100 µM
same,GI50,UO-31 renal,> 100 µM
same,TGI,UO-31 renal,> 100 µM
same,GI50,MDA-MB-231 breast,65.4 µM
same,TGI,MDA-MB-231 breast,> 100 µM
same,GI50,HOP-62 NSCLC,> 100 µM
same,TGI,HOP-62 NSCLC,> 100 µM
same,GI50,DU-145 prostate,> 100 µM
same,TGI,DU-145 prostate,> 100 µM
COc1ccc2c3c1O[C@@H]1C4(OC)CCC5(CC4C(C)(O)C(C)(C)C)[C@H](C2)NCC[C@@]315 (stereo partly drawn),TGI,M14 melanoma,32.8 µM
same,TGI,HL-60(TB) leukemia,38.1 µM
same,TGI,786-0 renal,> 100 µM
same,TGI,IGROV1 ovarian,> 100 µM
same,TGI,A549 NSCLC,> 100 µM
same,TGI,K-562 leukemia,41.9 µM
same,TGI,SN12C renal,> 100 µM
same,TGI,HCT-116 colon,> 100 µM
same,TGI,MOLT-4 leukemia,47.3 µM
same,TGI,CCRF-CEM leukemia,63.4 µM
same,TGI,SK-MEL-2 melanoma,37.1 µM
same,TGI,MDA-MB-435,88.5 µM
same,TGI,A498 renal,> 100 µM
same,TGI,NCI-H23 lung,> 100 µM
same,TGI,HS 578T breast,> 100 µM
same,TGI,MALME-3M melanoma,54.2 µM
same,TGI,NCI-H522 lung,> 100 µM
same,TGI,SR leukemia,37.6 µM
same,TGI,KM12 colon,53 µM
same,TGI,UACC-257 melanoma,38.7 µM
same,TGI,SNB-19 CNS,> 100 µM
same,TGI,ACHN renal,> 100 µM
same,TGI,NCI-H460 lung,40.9 µM
same,TGI,SW-620 colon,> 100 µM
same,TGI,CAKI-1 renal,> 100 µM
same,TGI,SF-295 CNS,> 100 µM
same,TGI,T-47D breast,46.6 µM
same,TGI,TK-10 renal,> 100 µM
same,TGI,HT29 colon,83 µM
same,TGI,OVCAR-4 ovarian,> 100 µM
same,TGI,OVCAR-5 ovarian,> 100 µM
same,TGI,U251 CNS,> 100 µM
same,TGI,EKVX NSCLC,98.4 µM
same,TGI,RPMI-8226 leukemia,36 µM
same,TGI,SK-OV-3 ovarian,> 100 µM
same,TGI,PC-3 prostate,> 100 µM
same,TGI,BT-549 breast,96.6 µM
same,TGI,SF-268 CNS,> 100 µM
same,TGI,MCF7 breast,> 100 µM
same,TGI,UACC-62 melanoma,74.2 µM
same,TGI,OVCAR-3 ovarian,> 100 µM
same,TGI,RXF 393 renal,57.3 µM
same,TGI,NCI/ADR-RES ovarian,66.3 µM
same,TGI,HCC-2998 colon,22.1 µM
same,TGI,MDA-N,> 100 µM
same,TGI,UO-31 renal,> 100 µM
same,TGI,MDA-MB-231 breast,> 100 µM
same,TGI,NCI-H322M lung,> 100 µM
same,TGI,HOP-92 NSCLC,> 100 µM
same,TGI,HOP-62 NSCLC,> 100 µM
same,TGI,DU-145 prostate,> 100 µM
